Experimental findings from ChEMBL document CHEMBL3297661, “1-Substituted-5-[(3,5-dinitrobenzyl)sulfanyl]-1H-tetrazoles and their isosteric analogs: A new class of selective antitubercular agents active against drug-susceptible and multidrug-resistant mycobacteria” (Eur J Med Chem, 2014) are described below.

Broadly, the IC50 is the concentration that gives 50% inhibition.

A short description of data set [1]: Cytotoxicity against MDCK2 cells assessed as cell viability at 30 uM after 48 hrs by MTT assay. Format: cell-based, Canis lupus familiaris. To be noted: dog, mdck-ii. (Tetrazolium assays rely on reduction of a dye to a coloured formazan, in cell work by metabolically active cells.)
In data set [2] the test system is HeLa. In words: Cytotoxicity against human HeLa cells assessed as cell viability at 30 uM after 48 hrs by MTT assay. Format: cell-based.
Data set [3] can be described thus: Cytotoxicity against human HuH7 cells assessed as cell viability at 30 uM after 48 hrs by MTT assay. It is filed as cell-based. To be noted: huh-7, 48 h.
The subject of data set [4] is HeLa. Nature of the data set: Cytotoxicity against human HeLa cells assessed as reduction in cell viability after 48 hrs by MTT assay. It is filed as cell-based.
Data set [5] concerns HepG2. Nature of the data set: Cytotoxicity against human HepG2 cells assessed as cell viability at 30 uM after 48 hrs by MTT assay. It is filed as cell-based. Particulars: hepg2, 48 h.
The nature of data set [6]: Cytotoxicity against MDCK2 cells assessed as reduction in cell viability after 48 hrs by MTT assay. Format: cell-based, Canis lupus familiaris. To be noted: mdck-ii.
Data set [7] has as its system HepG2. In words: Cytotoxicity against human HepG2 cells assessed as reduction in cell viability after 48 hrs by MTT assay. Format: cell-based.
Data set [8] is described as follows: Cytotoxicity against human HuH7 cells assessed as reduction in cell viability after 48 hrs by MTT assay. It is filed as cell-based. Particulars: huh-7.

On to `O=[N+]([O-])c1cccc(-n2nnnc2SCc2cc([N+](=O)[O-])cc([N+](=O)[O-])c2)c1`, for which the Activity in data set [1] worked out at 95%; in data set [2], 62%; in data set [3], 95%; in data set [5] it was 84%. Besides, the IC50 in data set [4], in data set [6], in data set [7] and in data set [8] was > 30 µM each time.
In the case of `O=[N+]([O-])c1ccc(-n2nnnc2SCc2cc([N+](=O)[O-])cc([N+](=O)[O-])c2)cc1`, the Activity was 116% in data set [1], 65% in data set [2], 90% in data set [3] and 100% in data set [5]. Besides, the half-inhibitory concentration (IC50) in data set [4], in data set [6], in data set [7] and in data set [8] was > 30 µM throughout.
